Laboratory results published in patent publication US11964962B2, “Substituted pyridazinone compound and use thereof” (SHANDONG FIRST MEDICAL UNIVERSITY & SHANDONG ACADEMY OF …, priority 2020, dated 2024).

Amino acid sequences for entries named in this document (tags omitted). Residues count along the entry.
UniProt P10827, 1-410 isoform 2: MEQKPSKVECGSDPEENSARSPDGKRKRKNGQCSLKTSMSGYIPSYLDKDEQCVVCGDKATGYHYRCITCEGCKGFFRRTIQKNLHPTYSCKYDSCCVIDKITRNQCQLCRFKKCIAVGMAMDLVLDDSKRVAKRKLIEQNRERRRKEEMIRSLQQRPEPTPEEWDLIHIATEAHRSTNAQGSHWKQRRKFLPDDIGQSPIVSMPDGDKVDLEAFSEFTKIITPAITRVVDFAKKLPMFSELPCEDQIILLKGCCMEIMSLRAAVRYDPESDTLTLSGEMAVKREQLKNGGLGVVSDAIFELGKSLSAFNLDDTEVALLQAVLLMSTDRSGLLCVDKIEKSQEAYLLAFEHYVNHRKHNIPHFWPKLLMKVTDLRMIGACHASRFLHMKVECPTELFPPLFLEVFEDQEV
UniProt P10828, whole entry: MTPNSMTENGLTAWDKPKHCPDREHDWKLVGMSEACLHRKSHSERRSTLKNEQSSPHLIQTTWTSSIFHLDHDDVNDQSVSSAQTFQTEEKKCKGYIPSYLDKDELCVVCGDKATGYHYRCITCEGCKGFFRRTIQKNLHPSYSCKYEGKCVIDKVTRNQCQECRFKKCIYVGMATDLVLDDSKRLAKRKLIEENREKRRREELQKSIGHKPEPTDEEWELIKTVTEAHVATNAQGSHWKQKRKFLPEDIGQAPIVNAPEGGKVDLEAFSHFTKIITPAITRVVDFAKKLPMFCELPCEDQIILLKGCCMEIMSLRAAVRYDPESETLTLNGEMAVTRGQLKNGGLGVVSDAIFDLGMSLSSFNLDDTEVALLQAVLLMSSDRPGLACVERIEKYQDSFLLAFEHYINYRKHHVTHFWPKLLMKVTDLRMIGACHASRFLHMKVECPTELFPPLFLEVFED
UniProt P19793, 225-462 partner limits assumed: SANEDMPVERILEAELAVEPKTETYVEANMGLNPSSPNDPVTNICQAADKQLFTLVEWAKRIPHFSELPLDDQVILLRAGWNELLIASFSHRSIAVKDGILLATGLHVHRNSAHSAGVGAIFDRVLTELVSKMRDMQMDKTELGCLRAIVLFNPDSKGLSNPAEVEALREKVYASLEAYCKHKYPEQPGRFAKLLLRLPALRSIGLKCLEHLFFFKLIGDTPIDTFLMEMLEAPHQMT
UniProt Q15596, 679-703 partner limits assumed: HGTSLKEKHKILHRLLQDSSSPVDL

Experiments:
THRα = THRα (Homo sapiens, UniProt P10827); assay: THRα agonist activity, fluorescence ratio 665 nm/615 nm with EE-RxRα and biotin-GRIP; type: biochemical; conditions: read-out: EC50 of THRα; incubated overnight at 4° C.
THRβ = THRβ (Homo sapiens, UniProt P10828); assay: THRβ agonist activity, fluorescence ratio 665 nm/615 nm with EE-RxRα and biotin-GRIP; type: biochemical; conditions: read-out: EC50 of THRβ; incubated overnight at 4° C.
L929 mouse fibroblasts = assay: Cytotoxicity in normal cell line L929 (CCK-8 proliferation assay); type: cell-based; conditions: read-out: IC50 for proliferation of L929 cell lines; 48 h treatment, CCK-8, absorbance 450 nm

Structure (SMILES)	EC50 (THRα)	EC50 (THRβ)	IC50 (L929 mouse fibroblasts)
COc1cc(-n2nc(C#N)c(=O)[nH]c2=O)ccc1Oc1cc(CC(C)C)c(=O)[nH]n1	> 60 µM	0.0616 µM	> 50 µM
CC(C)Cc1cc(Oc2cc(Cl)c(-n3nc(C#N)c(=O)[nH]c3=O)cc2Cl)n[nH]c1=O	0.003 µM	17.6 µM	
